# Literature values in US11304929B2, “Tosylacetate based compounds and derivatives thereof as PHGDH inhibitors” (priority 2017, dated 2022).
# Chains of the proteins cited; added tags and fusions are not shown. Residues count along the entry.
# UniProt O43175, 2-533 limits assumed: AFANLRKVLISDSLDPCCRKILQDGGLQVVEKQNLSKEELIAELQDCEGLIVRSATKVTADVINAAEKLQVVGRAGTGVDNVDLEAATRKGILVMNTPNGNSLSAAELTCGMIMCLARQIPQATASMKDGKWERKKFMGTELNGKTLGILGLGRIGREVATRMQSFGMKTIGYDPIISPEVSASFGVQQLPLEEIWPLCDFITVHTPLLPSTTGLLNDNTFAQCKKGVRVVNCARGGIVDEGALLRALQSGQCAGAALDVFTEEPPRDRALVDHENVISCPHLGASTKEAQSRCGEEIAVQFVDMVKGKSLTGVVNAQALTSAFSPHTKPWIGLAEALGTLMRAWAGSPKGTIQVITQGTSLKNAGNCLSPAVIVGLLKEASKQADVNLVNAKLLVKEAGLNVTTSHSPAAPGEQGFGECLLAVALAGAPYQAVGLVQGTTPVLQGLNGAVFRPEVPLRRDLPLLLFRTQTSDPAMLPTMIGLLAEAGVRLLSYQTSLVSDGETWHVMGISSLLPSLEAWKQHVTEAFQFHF
# Molecular target: PHGDH (Homo sapiens (Human), UniProt O43175)
# Conditions: reported by Cantley et al., PNAS (2016); cited from earlier work
substance,measurement,value
CBR-5884,potency as allosteric PHGDH inhibitor,low micromolar potency
